Among the data in US10442819B2, “Tricyclic compounds as inhibitors of mutant IDH enzymes” (Merck Sharp & Dohme Corp., priority 2014, dated 2019) are IC50 values, retold here.

Sequences of proteins named here, by UniProt entry; tags and fusion partners are left off.
UniProt O75874, whole entry R132H: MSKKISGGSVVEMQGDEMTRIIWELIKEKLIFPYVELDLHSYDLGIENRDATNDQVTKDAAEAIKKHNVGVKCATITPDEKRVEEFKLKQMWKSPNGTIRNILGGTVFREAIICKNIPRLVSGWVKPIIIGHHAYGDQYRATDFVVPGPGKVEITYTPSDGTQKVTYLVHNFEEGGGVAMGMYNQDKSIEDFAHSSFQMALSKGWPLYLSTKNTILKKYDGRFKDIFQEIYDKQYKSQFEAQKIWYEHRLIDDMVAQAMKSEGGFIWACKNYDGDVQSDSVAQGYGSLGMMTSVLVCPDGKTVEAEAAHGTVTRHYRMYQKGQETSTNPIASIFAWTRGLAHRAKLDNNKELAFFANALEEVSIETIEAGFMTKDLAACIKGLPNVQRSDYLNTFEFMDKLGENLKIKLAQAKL

This assay deals with R132H mutant IDH1 enzyme (Homo sapiens (Human), UniProt O75874, R132H). Put plainly: R132H IDH1 Enzymatic Assay. The format is biochemical. The settings on record: R132H mutant IDH1 enzyme 1.5 nM final; luminescence readout; read-out: IC50.

Take `O=C(C1CCN(CC(F)(F)C(F)F)CC1)N1Cc2cccnc2Nc2ccc(N3CC4CCC3CO4)cc21` (stereo not drawn) [Example 341, 8-(2-oxa-5-azabicyclo[2.2.2]oct-5-yl)-6-{[1-(2,2,3,3-tetrafluoropropyl)piperidin-4-yl]carbonyl}-6,11-dihydro-5H-pyrido[2,3-b][1,5]benzodiazepine]: the 50% inhibitory concentration (IC50) (as a rule, the point on the concentration scale where inhibition reaches its midpoint) was 0.027 µM.
In the case of `CC(C)C1CC(C(=O)N2Cc3cccnc3Nc3ccccc32)C1` (stereo not drawn) [Example 56, 6-{[3-(1-methylethyl)cyclobutyl]carbonyl}-6,11-dihydro-5H-pyrido[2,3-b][1,5]benzodiazepine], the half-inhibitory concentration (IC50) came to 0.492 µM.
Take `CO[C@H]1CC[C@@H](C(=O)N2Cc3cccnc3Nc3ccc(C(=O)Nc4ccccc4F)cc32)CC1` [Example 510, N-(2-Fluorophenyl)-6-[(cis-4-methoxycyclohexyl)carbonyl]-6,11-dihydro-5H-pyrido[2,3-b][1,5]benzodiazepine-8-carboxamide]: the IC50 was found to be 0.206 µM.
Consider `CO[C@H]1CC[C@H](C(=O)N2Cc3cccnc3Nc3ccc(N4CCOCCC4C)cc32)CC1` (stereo partly drawn) [Example 229, 6-[(trans-4-methoxycyclohexyl)carbonyl]-8-(5-methyl-1,4-oxazepan-4-yl)-6,11-dihydro-5H-pyrido[2,3-b][1,5]benzodiazepine], for which the half-inhibitory concentration (IC50) is 0.303 µM.
As for `O=C([C@H]1CC[C@H](NC(C2CC2)C(F)(F)F)CC1)N1Cc2cccnc2Nc2ccc(N3CCOCC3)cc21` (stereo partly drawn) [Example 445, trans-N-[1-cyclopropyl-2,2,2-trifluoroethyl]-4-[(8-morpholin-4-yl-5,11-dihydro-6H-pyrido[2,3-b][1,5]benzodiazepin-6-yl)carbonyl]cyclohexanamine], the half-maximal inhibitory concentration (IC50) came out at 0.095 µM.
For `COC[C@H]1CCCN1c1ccc2c(c1)N(C(=O)[C@H]1CC[C@H](OC)CC1)Cc1cccnc1N2` [Example 261, 6-[(trans-4-methoxycyclohexyl)carbonyl]-8-[(2R)-2-(methoxymethyl)pyrrolidin-1-yl]-6,11-dihydro-5H-pyrido[2,3-b][1,5]benzodiazepine] the value was 0.191 µM; for `CC(C)O[C@H]1CC[C@H](C(=O)N2Cc3cccnc3Nc3ccc([C@H]4CC[C@@H](C)O4)cc32)OC1` (single isomer, unassigned) [Example 534], 0.065 µM.
Consider `COC1CCC(C(=O)N2Cc3cccnc3Nc3ccc(N4CCC(OC)CC4)cc32)CC1` (stereo not drawn) [Example 199, 6-[(4-methoxycyclohexyl)carbonyl]-8-(4-methoxypiperidin-1-yl)-6,11-dihydro-5H-pyrido[2,3-b][1,5]benzodiazepine], for which the IC50 was found to be 0.627 µM.
With `CC(C)O[C@H]1CC[C@H](C(=O)N2Cc3cccnc3Nc3ccc(N4CC5(CCCOC5)C4)cc32)OC1` [Example 42, (8-(6-oxa-2-azaspiro[3.5]nonan-2-yl)-5,11-dihydro-6H-benzo[b]pyrido[2,3-e][1,4]diazepin-6-yl)((2R,5S)-5-isopropoxytetrahydro-2H-pyran-2-yl)methanone], the half-maximal inhibitory concentration (IC50) was 0.05 µM.
For the compound `CC(C)[C@H](N[C@H]1CC[C@H](C(=O)N2Cc3cccnc3Nc3ccc(N4CCOCC4)cc32)CC1)C(F)(F)F` [Example 454, trans-N-[(1S)-2-methyl-1-(trifluoromethyl)propyl]-4-[(8-morpholin-4-yl-5,11-dihydro-6H-pyrido[2,3-b][1,5]benzodiazepin-6-yl)carbonyl]cyclohexanamine], the half-maximal inhibitory concentration (IC50) was 0.115 µM.
For `CN(C(C1CC1)C(F)(F)F)[C@H]1CC[C@@H](C(=O)N2Cc3cccnc3Nc3ccc(N4CCOCC4)cc32)CC1` (stereo partly drawn) [Example 448, cis-N-[1-cyclopropyl-2,2,2-trifluoroethyl]-N-methyl-4-[(8-morpholin-4-yl-5,11-dihydro-6H-pyrido[2,3-b][1,5]benzodiazepin-6-yl)carbonyl]cyclohexanamine] the value was 0.123 µM.
In the case of `COC1CN(c2ccc3c(c2)N(C(=O)[C@H]2CC[C@H](OC)CC2)Cc2cccnc2N3)CC1F` (stereo partly drawn) [Example 219, 8-(3-fluoro-4-methoxypyrrolidin-1-yl)-6-[(trans-4-methoxycyclohexyl)carbonyl]-6,11-dihydro-5H-pyrido[2,3-b][1,5]benzodiazepine], the IC50 was 0.2 µM.
With `COC1CCC(C(=O)N2Cc3cccnc3Nc3ccc(N4C(=O)OC[C@@H]4C(C)C)cc32)CC1` (stereo partly drawn) [Example 491, (4S)-3-{6-[(4-methoxycyclohexyl)carbonyl]-6,11-dihydro-5H-pyrido[2,3-b][1,5]benzodiazepin-8-yl}-4-(1-methylethyl)-1,3-oxazolidin-2-one], the IC50 is 0.019 µM.
With `CO[C@H]1CC[C@H](C(=O)N2Cc3cccnc3Nc3ccc(-c4cnn5c4CCC5)cc32)CC1` [Example 371, 8-(5,6-dihydro-4H-pyrrolo[1,2-b]pyrazol-3-yl)-6-[(trans-4-methoxycyclohexyl)carbonyl]-6,11-dihydro-5H-pyrido[2,3-b][1,5]benzodiazepine], the IC50 stood at 0.068 µM.
`CO[C@H]1CC[C@H](C(=O)N2Cc3cccnc3Nc3ccc(N4CCCCC4)cc32)CC1` [Example 226, 6-[(trans-4-methoxycyclohexyl)carbonyl]-8-piperidin-1-yl-6,11-dihydro-5H-pyrido[2,3-b][1,5]benzodiazepine]: the IC50 was determined as 0.475 µM.
On to `COC1CN(c2ccc3c(c2)N(C(=O)[C@H]2CC[C@H](OC)CC2)Cc2cccnc2N3)C1` [Example 414, 8-(3-methoxyazetidin-1-yl)-6-[(trans-4-methoxycyclohexyl)carbonyl]-6,11-dihydro-5H-pyrido[2,3-b][1,5]benzodiazepine], for which the IC50 was 0.725 µM.
For `CC(C)O[C@H]1CC[C@H](C(=O)N2Cc3cccnc3Nc3ccc([C@@]4(C)C[C@@H](OC(C)C)CO4)cc32)OC1` (single isomer, unassigned) [Example 149], the half-maximal inhibitory concentration (IC50) is 0.075 µM.
For `O=C([C@H]1CC[C@@H](NCC(F)(F)F)CC1)N1Cc2cccnc2Nc2ccc([C@@H]3CCCOC3)cc21` [Example 377, cis-4-({8-[(3S)-tetrahydro-2H-pyran-3-yl]-5,11-dihydro-6H-pyrido[2,3-b][1,5]benzodiazepin-6-yl}carbonyl)-N-(2,2,2-trifluoroethyl)cyclohexanamine], the 50% inhibitory concentration (IC50) was 0.048 µM.
As to `CCC(=O)N1CC2CCC1CN2c1ccc2c(c1)N(C(=O)C1CC(C)(C)C1)Cc1cccnc1N2` (stereo not drawn) [Example 501, 6-[(3,3-dimethylcyclobutyl)carbonyl]-8-(5-propanoyl-2,5-diazabicyclo[2.2.2]oct-2-yl)-6,11-dihydro-5H-pyrido[2,3-b][1,5]benzodiazepine], the half-inhibitory concentration (IC50) amounted to 0.098 µM.
For `CC(C)O[C@@H]1CC[C@H](C(=O)N2Cc3cccnc3Nc3ccc(N4CCOCC4)cc32)C1` [Example 66, 6-{[(1S,3R)-3-(1-methylethoxy)cyclopent-yl]carbonyl}-8-morpholin-4-yl-6,11-dihydro-5H-pyrido[2,3-b][1,5]benzodiazepine] the value was 0.113 µM; for `CCN1C(=O)OCC12CCN(c1ccc3c(c1)N(C(=O)[C@H]1CC[C@H](OC)CC1)Cc1cccnc1N3)C2` (stereo partly drawn) [Example 248, 1-ethyl-7-{6-[(trans-4-methoxycyclohexyl)carbonyl]-6,11-dihydro-5H-pyrido[2,3-b][1,5]benzodiazepin-8-yl}-3-oxa-1,7-diazaspiro[4.4]nonan-2-one], 0.159 µM.
For `CO[C@H]1CC[C@H](C(=O)N2Cc3cccnc3Nc3ccc(-c4cncnc4)cc32)CC1` [Example 400, 6-[(Trans-4-methoxycyclohexyl)carbonyl]-8-pyrimidin-5-yl-6,11-dihydro-5H-pyrido[2,3-b][1,5]benzodiazepine] the value was 0.582 µM.
Turning to `COC1CCC(C(=O)N2Cc3cccnc3Nc3ccc(CCc4ccccn4)cc32)CC1` (stereo not drawn) [Example 425, 6-[(4-methoxycyclohexyl)carbonyl]-8-(2-pyridin-2-ylethyl)-6,11-dihydro-5H-pyrido[2,3-b][1,5]benzodiazepine], the IC50 worked out at 0.087 µM.
For `COC1CCC(C(=O)N2Cc3cccnc3Nc3ccc(N4CCC(OC)CC4)cc32)CC1` (stereo not drawn) [Example 198, 6-[(4-methoxycyclohexyl)carbonyl]-8-(4-methoxypiperidin-1-yl)-6,11-dihydro-5H-pyrido[2,3-b][1,5]benzodiazepine] the value was 0.761 µM; for `CO[C@@H](C1CC1)[C@H]1CC[C@H](C(=O)N2Cc3cccnc3Nc3ccc(N4CCOCC4)cc32)CC1` [Example 170, 6-({Trans-4-[(S)-cyclopropyl(methoxy)methyl]cyclohexyl}carbonyl)-8-morpholin-4-yl-6,11-dihydro-5H-pyrido[2,3-b][1,5]benzodiazepine], 0.07 µM.
For `O=C(C1CCN(C2(C(F)(F)F)CCC2)CC1)N1Cc2cccnc2Nc2ccc(N3CCOCC3)cc21` [Example 39, 8-morpholin-4-yl-6-({1-[1-(trifluoromethyl)cyclobutyl]piperidin-4-yl}carbonyl)-6,11-dihydro-5H-pyrido[2,3-b][1,5]benzodiazepine] the value was 0.016 µM; for `CC(C)O[C@H]1CC[C@H](C(=O)N2Cc3cccnc3Nc3ccc(C4CCCO4)cc32)CC1` (stereo partly drawn) [Example 526, [Trans-4-(propan-2-yloxy)cyclohexyl][8-(tetrahydrofuran-2-yl)-5,11-dihydro-6H-pyrido[2,3-b][1,5]benzodiazepin-6-yl]methanone], 0.026 µM.
Turning to `N#C[C@H]1CC[C@H](C(=O)N2Cc3cccnc3Nc3ccc(N4CCOCC4)cc32)CC1` [Example 86, trans-4-[(8-morpholin-4-yl-5,11-dihydro-6H-pyrido[2,3-b][1,5]benzodiazepin-6-yl)carbonyl]cyclohexane carbonitrile], the half-inhibitory concentration (IC50) was found to be 0.801 µM.
Regarding `CO[C@H]1CC[C@H](C(=O)N2Cc3cccnc3Nc3ccc(N4CCOCC(C)C4)cc32)CC1` (stereo partly drawn) [Example 233, 6-[(trans-4-methoxycyclohexyl)carbonyl]-8-(6-methyl-1,4-oxazepan-4-yl)-6,11-dihydro-5H-pyrido[2,3-b][1,5]benzodiazepine], the IC50 was 0.31 µM.
As to `COC1CCC(C(=O)N2Cc3cccnc3Nc3ccc(CCC(C)(C)C)cc32)CC1` (stereo not drawn) [Example 428, 8-(3,3-dimethylbutyl)-6-[(4-methoxycyclohexyl)carbonyl]-6,11-dihydro-5H-pyrido[2,3-b][1,5]benzodiazepine], the IC50 amounted to 0.075 µM.
